Literature values as cited in patent US20090186809A1, “USE OF VALPROIC ACID FOR THE TOPICAL TREATMENT OF MILD TO MODERATE ACNE VULGARIS” (TOPOTARGET GERMANY AG, priority 2006, published 2009).

Details: metastatic renal cell carcinoma, 60/329 patients; cited from earlier work

For “interleukin 2: cytokine secreted by activated T cells with antitumor activity”, the “patients in whom antithyroid antibodies were detected” value is listed as 18%.
